Patent publication US20240189423A1

Molecular target: epidermal growth factor receptor (EGFR) (human (endogenous on human cancer cell lines)) (UniProt P00533)
Test: cell-based or functional assay

Substance: CXCL12-Cetuximab (bispecific antibody)
- Dmax (%), EGFR, A431: 54%
- Dmax (%), EGFR, A549: 72%
- Dmax (%), EGFR, HeLa: 84%
- Dmax (%), EGFR, MDA-MB-231: 66%
- Dmax (%), EGFR, NCI-H292: 74%
- Dmax (%), EGFR, NCI-H358: 79%
- Dmax of EGFR degradation, western blot, HeLa cells, 24 hr: 86%
